From patent US11612604B2, “Methods of treating cancer with PLK4 inhibitors” (LUDWIG INSTITUTE FOR CANCER RESEARCH LTD, priority 2017, dated 2023)

By UniProt entry, the sequences of proteins in these tests, tags left out.
UniProt O00444, whole entry: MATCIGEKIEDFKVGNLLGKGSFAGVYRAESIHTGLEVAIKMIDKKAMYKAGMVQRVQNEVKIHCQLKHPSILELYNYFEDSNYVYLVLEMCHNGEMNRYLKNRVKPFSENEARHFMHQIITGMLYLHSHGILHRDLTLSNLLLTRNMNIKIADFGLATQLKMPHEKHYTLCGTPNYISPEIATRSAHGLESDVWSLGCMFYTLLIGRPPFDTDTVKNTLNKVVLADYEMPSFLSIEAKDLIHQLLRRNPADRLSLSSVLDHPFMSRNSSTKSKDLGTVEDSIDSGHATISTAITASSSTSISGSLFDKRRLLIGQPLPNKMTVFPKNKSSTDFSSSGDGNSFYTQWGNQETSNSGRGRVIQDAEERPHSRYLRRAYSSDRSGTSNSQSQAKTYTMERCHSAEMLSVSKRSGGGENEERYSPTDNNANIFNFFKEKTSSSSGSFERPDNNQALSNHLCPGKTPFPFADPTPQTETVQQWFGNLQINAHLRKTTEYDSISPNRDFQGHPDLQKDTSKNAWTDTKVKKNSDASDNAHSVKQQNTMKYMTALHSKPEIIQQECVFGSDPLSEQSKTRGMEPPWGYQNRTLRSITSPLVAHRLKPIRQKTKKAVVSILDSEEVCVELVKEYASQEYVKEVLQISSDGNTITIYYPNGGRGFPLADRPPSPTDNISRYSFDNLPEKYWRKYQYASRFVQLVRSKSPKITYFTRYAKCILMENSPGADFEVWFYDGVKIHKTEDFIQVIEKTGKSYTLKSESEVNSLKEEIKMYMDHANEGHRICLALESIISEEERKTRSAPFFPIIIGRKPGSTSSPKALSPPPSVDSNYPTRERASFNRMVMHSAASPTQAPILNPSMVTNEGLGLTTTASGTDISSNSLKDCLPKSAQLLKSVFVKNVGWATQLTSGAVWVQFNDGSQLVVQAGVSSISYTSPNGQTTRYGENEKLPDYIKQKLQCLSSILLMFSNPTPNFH

target: PLK4 (Homo sapiens, UniProt O00444); test: Activity (IC50) of the Table 1 compounds as PLK4 inhibitors; format: biochemical; conditions: read-out: Activity; Table 1, IC50 class

IC50, < 0.1 µM:
COc1c(Nc2cc(C)[nH]n2)nc(Sc2ccc(S(=O)(=O)C(C)(C)c3c(F)c(F)cc(F)c3F)cc2F)nc1N1CCC(O)CC1
COc1c(Nc2cc(C)[nH]n2)nc(Sc2ccc(S(=O)(=O)C(C)(C)c3c(F)c(F)cc(F)c3F)cc2F)nc1N1CCC(C(=O)N(C)C)CC1
COc1c(Nc2cc(C)[nH]n2)nc(Sc2ccc(S(=O)(=O)C(C)(C)c3c(F)c(F)cc(F)c3F)cc2F)nc1N1CCN(CCN(C)C)CC1
COc1c(Nc2cc(C)[nH]n2)nc(Sc2ccc(S(=O)(=O)C(C)(C)c3c(F)c(F)cc(F)c3F)cc2F)nc1N1CCC(OC(C)=O)C1 (centres unmarked)
COc1c(Nc2cc(C)[nH]n2)nc(Sc2ccc(S(=O)(=O)C(C)(C)c3c(F)c(F)cc(F)c3F)cc2F)nc1N1CCOCC1
COc1c(Nc2cc(C)[nH]n2)nc(Sc2ccc(S(=O)(=O)C(C)(C)c3c(F)c(F)cc(F)c3F)cc2F)nc1N1CCC(O)C1 (centres unmarked)
COc1c(Nc2cc(C)[nH]n2)nc(Sc2ccc(S(=O)(=O)C(C)(C)c3c(F)c(F)cc(F)c3F)cc2F)nc1N1CCC(C(N)=O)CC1
COc1c(Nc2cc(C)[nH]n2)nc(Sc2ccc(S(=O)(=O)C(F)c3c(F)c(F)cc(F)c3F)cc2F)nc1N1CCN(CCN(C)C)CC1 (centres unmarked)
COc1c(Nc2cc(C)[nH]n2)nc(Sc2ccc(S(=O)(=O)C(C)(C)c3c(F)c(F)cc(F)c3F)cc2F)nc1N1CCC(OC)CC1
COc1c(Nc2cc(C)[nH]n2)nc(Sc2ccc(S(=O)(=O)C(C)(C)c3c(F)c(F)cc(F)c3F)cc2F)nc1N1CCC(CCN(C)C)CC1
COc1c(Nc2cc(C)[nH]n2)nc(Sc2ccc(S(=O)(=O)C(F)c3c(F)c(F)cc(F)c3F)cc2F)nc1N1CCOCC1 (centres unmarked)
